Measured values: article PMC12518634, “The noncanonical function of liver-type phosphofructokinase potentiates the efficacy of HDAC inhibitors in cancer” (Signal Transduction and Targeted Therapy, 2025)

Tested on: 1405R3
Assay: High-throughput drug screen, CellTiter-Glo viability, 72 h
Assay type: cell-based, human

CCNC(=O)C[C@@H]1N=C(c2ccc(Cl)cc2)c2cc(OC)ccc2-n2c(C)nnc21 [I-BET-762]
EC50: 1290 nM
